Measured values as given in paper PMC10641276 (Saudi Pharmaceutical Journal : SPJ, 2023).

Sequences of proteins named here, by UniProt entry; tags and fusion partners are left off. A change or cut given only in a name is not applied to a line headed by its entry.
UniProt P07650: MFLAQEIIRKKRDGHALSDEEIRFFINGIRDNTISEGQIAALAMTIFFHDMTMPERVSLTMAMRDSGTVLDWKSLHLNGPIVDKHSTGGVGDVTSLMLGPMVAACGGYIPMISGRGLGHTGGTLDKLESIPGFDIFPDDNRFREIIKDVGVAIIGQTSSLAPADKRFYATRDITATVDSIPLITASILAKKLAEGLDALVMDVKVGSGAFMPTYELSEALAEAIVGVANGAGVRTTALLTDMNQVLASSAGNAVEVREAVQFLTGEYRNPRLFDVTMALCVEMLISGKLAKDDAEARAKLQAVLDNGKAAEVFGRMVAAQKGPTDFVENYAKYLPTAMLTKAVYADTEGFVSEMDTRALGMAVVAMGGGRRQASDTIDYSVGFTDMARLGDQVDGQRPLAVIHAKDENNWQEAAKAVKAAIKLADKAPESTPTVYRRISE

Biological target: thymidine phosphorylase (Escherichia coli, UniProt P07650)
Type: biochemical
Conditions: read-out: IC50 ± SEM

Q: For 7-Deazaxanthine [reference compound], which IC50 is on record?
A: The IC50 was 25.8 ± 1.9 µM.
